Source: patent US7291612B2, “Immunomodulatory compounds” (Active Biotech A.B., priority 2002, dated 2007)
Where a name gives a salt, the structure may show the parent alone.

By UniProt entry, the sequences of proteins in these tests, tags left out. Residues count along the entry.
UniProt P33681, 35-242 limits assumed: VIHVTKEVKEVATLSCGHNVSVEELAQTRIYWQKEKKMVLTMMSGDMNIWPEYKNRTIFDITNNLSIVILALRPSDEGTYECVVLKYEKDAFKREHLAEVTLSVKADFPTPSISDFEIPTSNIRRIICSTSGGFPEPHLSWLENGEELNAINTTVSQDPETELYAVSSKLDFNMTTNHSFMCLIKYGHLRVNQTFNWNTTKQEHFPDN

Molecular target: CD80-CD28 interaction (Homo sapiens, UniProt P33681)
Test: cell free Homogenous Time Resolved Fluorescence (HTRF) assay, inhibition of the CD80-CD28 interaction
Conditions: read-out: Activity (EC50 in summary form), 4 hours at room temperature

Structure (SMILES) | EC50
CC1(C)CC(NC(=O)c2ccc(-n3nc4c5cccc(F)c5[nH]c(C5CC5)c-4c3=O)cc2)CC(C)(C)N1 | < 1000 nM
CN(C)CCCCCCNC(=O)c1ccc(-n2nc3c4cccc(F)c4[nH]cc-3c2=O)cc1 | < 1000 nM
CN1C(C)(C)CC(NC(=O)c2ccc(-n3nc4c5cccc(F)c5[nH]c(C5CC5)c-4c3=O)cc2)CC1(C)C | < 1000 nM
CCCC(C)C(=O)Nc1ccc(-n2nc3c4cccc(F)c4[nH]cc-3c2=O)cc1 (stereo not drawn) [Example 2, 2-Methyl-pentanoic acid [4-(6-fluoro-3-oxo-3,5-dihydro-pyrazolo[4,3-c]quinolin-2-yl)-phenyl]-amide] | < 1000 nM
CN(C)CCCNC(=O)c1ccc(-n2nc3c4ccccc4[nH]c(C4CC4)c-3c2=O)cc1 [Example 65, N-(3-Dimethylaminopropyl)-4-(4-cyclopropyl-3-oxo-3,5-dihydro-pyrazolo[4,3-c]quinolin-2-yl]-benzamide] | < 1000 nM
CN(C)CCCNC(=O)c1ccc(-n2nc3c4cccc(F)c4[nH]cc-3c2=O)cc1 [Example 66, N-(3-Dimethylaminopropyl)-4-(6-fluoro-3-oxo-3,5-dihydro-pyrazolo[4,3-c]quinolin-2-yl]-benzamide hydrochloride] | < 1000 nM
